The record followed here is patent US9242969B2, “Biaryl amide compounds as kinase inhibitors” (Novartis AG, priority 2013, dated 2016).

Sequences of proteins named here, by UniProt entry; tags and fusion partners are left off.
UniProt P04049, whole entry Y340E/Y341E: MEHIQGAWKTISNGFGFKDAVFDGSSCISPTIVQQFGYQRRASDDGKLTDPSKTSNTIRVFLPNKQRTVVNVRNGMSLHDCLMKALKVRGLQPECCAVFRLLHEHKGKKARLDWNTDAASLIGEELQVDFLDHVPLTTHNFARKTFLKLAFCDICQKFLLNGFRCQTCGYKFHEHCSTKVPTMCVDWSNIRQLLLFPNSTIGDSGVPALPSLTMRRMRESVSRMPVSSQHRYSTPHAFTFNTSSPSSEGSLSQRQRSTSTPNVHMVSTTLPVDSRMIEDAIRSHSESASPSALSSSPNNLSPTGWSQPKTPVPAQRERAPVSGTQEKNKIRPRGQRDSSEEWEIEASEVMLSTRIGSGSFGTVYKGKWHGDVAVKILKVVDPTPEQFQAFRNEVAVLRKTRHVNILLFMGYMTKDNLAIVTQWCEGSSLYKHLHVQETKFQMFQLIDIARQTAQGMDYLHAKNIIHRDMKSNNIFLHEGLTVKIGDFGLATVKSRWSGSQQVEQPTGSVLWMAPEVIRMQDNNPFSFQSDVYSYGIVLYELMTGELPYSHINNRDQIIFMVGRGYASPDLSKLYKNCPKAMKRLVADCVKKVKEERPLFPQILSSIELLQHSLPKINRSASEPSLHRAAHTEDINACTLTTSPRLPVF

For the assay, the target named is C-Raf FL (full-length C-Raf with Y340E and Y341E activating mutations) (Homo sapiens (Human), UniProt P04049, Y340E/Y341E). It is filed as biochemical. The following applies: full-length c-Raf 4 pM, ATP 3 uM, 10 nM biotinylated MEK1 kinase dead.
By IC50 is commonly meant the concentration that inhibits the measured activity by half. High values mean weaker potency in that assay, low ones greater potency in that assay. Regarding `Cc1ccc(NC(=O)c2ccnc(C(C)(C)C)c2)cc1-c1cc(N2CCOCC2)c(=O)n(C)c1` [Example 139, 2-(tert-butyl)-N-(4-methyl-3-(1-methyl-5-morpholino-6-oxo-1,6-dihydropyridin-3-yl)phenyl)isonicotinamide], the IC50 was found to be 0.491 nM.
Take `Cc1ccc(NC(=O)c2ccnc(C(C)(C)C#N)c2)cc1-c1cc(N2CCOCC2)c(=O)n(C)c1` [Example 140, 2-(2-cyanopropan-2-yl)-N-(4-methyl-3-(1-methyl-5-morpholino-6-oxo-1,6-dihydropyridin-3-yl)phenyl)isonicotinamide]: the IC50 stood at 0.483 nM.
Consider `Cc1ccc(NC(=O)c2ccnc(C(C)(C)C#N)c2)cc1-c1cc(N2CCOCC2)c(=O)n(CCO)c1` [Example 143, 2-(2-cyanopropan-2-yl)-N-(3-(1-(2-hydroxyethyl)-5-morpholino-6-oxo-1,6-dihydropyridin-3-yl)-4-methylphenyl)isonicotinamide], for which the IC50 turned out to be 2.26 nM.
Molecule `Cc1ncc(NC(=O)c2cccc(C(F)(F)F)c2)cc1-c1cc(N2CCOCC2)c(=O)n(CCO)c1` [Example 144, N-(1′-(2-hydroxyethyl)-2-methyl-5′-morpholino-6′-oxo-1′,6′-dihydro-[3,3′-bipyridin]-5-yl)-3-(trifluoromethyl)benzamide] returned an IC50 of 2.69 nM.
Take `Cc1ccc(NC(=O)c2cccc(C(F)(F)F)c2)cc1-c1c[nH]c(=O)c(N2CCOCC2)c1` [Example 146, N-(4-methyl-3-(5-morpholino-6-oxo-1,6-dihydropyridin-3-yl)phenyl)-3-(trifluoromethyl)benzamide]: it took 0.219 nM to reach half-maximal inhibition (IC50). This IC50 lies about 12-fold lower than the previous one.
With `Cc1ccc(NC(=O)c2cccc(C(F)(F)F)c2)cc1-c1cc(N2CCOCC2)c(=O)n(CC#N)c1` [Example 147, N-(3-(1-(cyanomethyl)-5-morpholino-6-oxo-1,6-dihydropyridin-3-yl)-4-methylphenyl)-3-(trifluoromethyl)benzamide] the figure was 0.103 nM; with `Cc1ccc(NC(=O)c2cccc(C(F)(F)F)c2)cc1-c1cc(N2CCOCC2)c(=O)n([C@H](C)C#N)c1` [Example 148, (R)—N-(3-(1-(1-cyanoethyl)-5-morpholino-6-oxo-1,6-dihydropyridin-3-yl)-4-methylphenyl)-3-(trifluoromethyl)benzamide], 0.285 nM.
In the case of `Cc1ccc(NC(=O)c2cccc(C(F)(F)F)c2)cc1-c1cc(N2CCOCC2)c(=O)n([C@@H](C)C#N)c1` [Example 149, (S)—N-(3-(1-(1-cyanoethyl)-5-morpholino-6-oxo-1,6-dihydropyridin-3-yl)-4-methylphenyl)-3-(trifluoromethyl)benzamide] it was 0.273 nM; in that of `Cc1ncc(NC(=O)c2cccc(C(F)(F)F)c2)cc1-c1cc(N2CCOCC2)c(=O)n(CCS(C)(=O)=O)c1` [Example 151, N-(2-methyl-1′-(2-(methylsulfonyl)ethyl)-5′-morpholino-6′-oxo-1′,6′-dihydro-[3,3′-bipyridin]-5-yl)-3-(trifluoromethyl)benzamide], 2.9 nM.
Turning to `Cc1ccc(NC(=O)c2cccc(C(F)(F)F)c2)cc1-c1cnc(O[C@@H](C)C#N)c(N2CCOCC2)c1` [Example 152, (S)—N-(3-(6-(1-cyanoethoxy)-5-morpholinopyridin-3-yl)-4-methylphenyl)-3-(trifluoromethyl)benzamide], the IC50 came out at 0.474 nM.
As for `Cc1ccc(NC(=O)c2cccc(C(F)(F)F)c2)cc1-c1cnc(O[C@H](C)C#N)c(N2CCOCC2)c1` [Example 153, (R)—N-(3-(6-(1-cyanoethoxy)-5-morpholinopyridin-3-yl)-4-methylphenyl)-3-(trifluoromethyl)benzamide], it took 0.196 nM to reach half-maximal inhibition (IC50).
In the case of `Cc1ccc(C(=O)Nc2cccc(C(F)(F)F)c2)cc1-c1cc(N2CCOCC2)c(=O)n(CCS(C)(=O)=O)c1` [Example 154, 4-methyl-3-(1-(2-(methylsulfonyl)ethyl)-5-morpholino-6-oxo-1,6-dihydropyridin-3-yl)-N-(3-(trifluoromethyl)phenyl)benzamide] it was 1.09 nM; in that of `CCn1cc(-c2cc(NC(=O)c3cccc(C(F)(F)F)c3)cnc2C)cc(N2CCOCC2)c1=O` [Example 157, N-(1′-ethyl-2-methyl-5′-morpholino-6′-oxo-1′,6′-dihydro-[3,3′-bipyridin]-5-yl)-3-(trifluoromethyl)benzamide], 2.13 nM; in that of `CCOc1ncc(-c2cc(NC(=O)c3ccnc(C(C)(C)C#N)c3)ccc2C)cc1N1CCOCC1` [Example 161, 2-(2-cyanopropan-2-yl)-N-(3-(6-ethoxy-5-morpholinopyridin-3-yl)-4-methylphenyl)isonicotinamide], 0.393 nM.
In the case of `Cc1ccc(NC(=O)c2cccc(C(F)(F)F)c2)cc1-c1cc(N2CCOCC2)n(C)c(=O)c1` [Example 162, N-(4-methyl-3-(1-methyl-6-morpholino-2-oxo-1,2-dihydropyridin-4-yl)phenyl)-3-(trifluoromethyl)benzamide] it was 0.215 nM; in that of `Cc1ccc(NC(=O)c2cccc(C(F)(F)F)c2)cc1-c1cc(N2CCOCC2)c(=O)n(C)n1` [Example 164, N-(4-methyl-3-(1-methyl-5-morpholino-6-oxo-1,6-dihydropyridazin-3-yl)phenyl)-3-(trifluoromethyl)benzamide], 0.255 nM.
In the case of `Cc1ncc(NC(=O)c2cccc(C(F)(F)F)c2)cc1-c1cc(N2CCOCC2)c(=O)n(C)n1` [Example 166, N-(6-methyl-5-(1-methyl-5-morpholino-6-oxo-1,6-dihydropyridazin-3-yl)pyridin-3-yl)-3-(trifluoromethyl)benzamide] it was 0.665 nM; in that of `CCn1cc(-c2cc(NC(=O)c3cccc(C(F)(F)F)c3)ccc2C)nc(N2CCOCC2)c1=O` [Example 169, N-(3-(4-ethyl-6-morpholino-5-oxo-4,5-dihydropyrazin-2-yl)-4-methylphenyl)-3-(trifluoromethyl)benzamide], 0.18 nM.
For `Cc1ccc(NC(=O)c2cccc(C(F)(F)F)c2)cc1-c1cn(CC(F)F)c(=O)c(N2CCOCC2)n1` [Example 170, N-(3-(4-(2,2-difluoroethyl)-6-morpholino-5-oxo-4,5-dihydropyrazin-2-yl)-4-methylphenyl)-3-(trifluoromethyl)benzamide], half-maximal inhibition (IC50) was put at 0.263 nM.
In the case of `CCN1CCN(c2cc(C(=O)Nc3ccc(C)c(-c4cc(N5CCOCC5)c(=O)n(C)c4)c3)cc(C(F)(F)F)c2)CC1` [Example 174, 3-(4-ethylpiperazin-1-yl)-N-(4-methyl-3-(1-methyl-5-morpholino-6-oxo-1,6-dihydropyridin-3-yl)phenyl)-5-(trifluoromethyl)benzamide] it was 2.24 nM.
With `Cc1ccc(NC(=O)c2cncc(N(C)C)c2)cc1-c1cc(N2CCOCC2)c(=O)n(C)c1` [Example 175, 5-(dimethylamino)-N-(4-methyl-3-(1-methyl-5-morpholino-6-oxo-1,6-dihydropyridin-3-yl)phenyl)nicotinamide] the figure was 0.23 nM; with `Cc1ccc(NC(=O)c2cc(C(F)(F)F)cc(S(C)(=O)=O)c2)cc1-c1cc(N2CCOCC2)c(=O)n(C)c1` [Example 176, N-(4-methyl-3-(1-methyl-5-morpholino-6-oxo-1,6-dihydropyridin-3-yl)phenyl)-3-(methylsulfonyl)-5-(trifluoromethyl)benzamide], 0.398 nM; with `Cc1ccc(NC(=O)c2ccnc(C(C)(F)F)c2)cc1-c1cc(N2CCOCC2)c(=O)n(C)c1` [Example 178, 2-(1,1-difluoroethyl)-N-(4-methyl-3-(1-methyl-5-morpholino-6-oxo-1,6-dihydropyridin-3-yl)phenyl)isonicotinamide], 0.172 nM.
The molecule `Cc1ccc(NC(=O)c2ccnc(C(F)(F)F)c2)cc1-c1cc(N2CCOCC2)c(=O)n(C)c1` [Example 179, N-(4-methyl-3-(1-methyl-5-morpholino-6-oxo-1,6-dihydropyridin-3-yl)phenyl)-2-(trifluoromethyl)isonicotinamide] returned a half-maximal inhibitory concentration (IC50) of 0.16 nM. The IC50 values of the last two molecules are within 1.5-fold of each other.
In the case of `COc1cc(C(=O)Nc2cnc(C)c(-c3cc(N4CCOCC4)c(=O)n(C)c3)c2)ccc1F` [Example 182, N-(1′,2-dimethyl-5′-morpholino-6′-oxo-1′,6′-dihydro-[3,3′-bipyridin]-5-yl)-4-fluoro-3-methoxybenzamide] it was 2.26 nM; in that of `Cc1ccc(NC(=O)c2ccnc(S(C)(=O)=O)c2)cc1-c1cc(N2CCOCC2)c(=O)n(C)c1` [Example 184, N-(4-methyl-3-(1-methyl-5-morpholino-6-oxo-1,6-dihydropyridin-3-yl)phenyl)-2-(methylsulfonyl)isonicotinamide], 0.479 nM; in that of `Cc1ccc(NC(=O)c2cccc(C(F)F)c2)cc1-c1cc(N2CCOCC2)c(=O)n(C)n1` [Example 186], 0.278 nM.
In the case of `Cc1ccc(NC(=O)c2ccnc(C(F)F)c2)cc1-c1cc(N2CCOCC2)c(=O)n(C)n1` [Example 189, 2-(difluoromethyl)-N-(4-methyl-3-(1-methyl-5-morpholino-6-oxo-1,6-dihydropyridazin-3-yl)phenyl)isonicotinamide] it was 0.678 nM; in that of `Cc1ccc(NC(=O)c2ccnc(C(C)(C)C#N)c2)cc1-c1cc(N2CCOCC2)c(=O)n(C)n1` [Example 191, 2-(2-cyanopropan-2-yl)-N-(4-methyl-3-(1-methyl-5-morpholino-6-oxo-1,6-dihydropyridazin-3-yl)phenyl)isonicotinamide], 1.43 nM; in that of `Cn1cc(-c2cc(C(=O)Nc3cccc(C(F)(F)F)c3)ccc2C(F)F)cc(N2CCOCC2)c1=O` [Example 192, 4-(difluoromethyl)-3-(1-methyl-5-morpholino-6-oxo-1,6-dihydropyridin-3-yl)-N-(3-(trifluoromethyl)phenyl)benzamide], 2.51 nM.
In the case of `COC(=O)NCCn1cc(-c2cc(NC(=O)c3cccc(C(F)(F)F)c3)cnc2C)cc(N2CCOCC2)c1=O` [Example 193] it was 11.1 nM.
On to `Cc1ccc(NC(=O)c2cccc(C(F)(F)F)c2)cc1-c1cc(N2CC3CC(C2)O3)c(=O)n(C)c1` [Example 201], for which the half-maximal inhibitory concentration (IC50) was 1.99 nM. This IC50 lies about 5.6-fold lower than the previous one.
With `Cc1ccc(NC(=O)c2cccc(C(F)(F)F)c2)cc1-c1nc(N2CCOCC2)c2sccc2n1` [Example 204] the figure was 0.039 nM.
`Cc1ccc(NC(=O)c2cccc(C(F)(F)F)c2)cc1-c1cn2ccnc2c(N2CCOC[C@H]2C)n1` [Example 205] showed an IC50 of 0.185 nM.
